From paper PMC5059467, “Anti-tubulin drugs conjugated to anti-ErbB antibodies selectively radiosensitize” (Nature Communications, 2016)

Tests used:
OE19 tumour xenografts = assay: OE19 tumour xenograft growth with or without IR; assay type: in vivo, mice; conditions: for Tumour doubling time in days (mean, 95% CI): OE19 (HER2+)
Procedure: CAL-27, OE19, NCI N87 and HCT116 tumour xenografts were established and tumour growth was measured with digital calipers. Tumour volume was measured blindly to treatment group and calculated using the formula as ½ × length × width^2. Mice were randomized into groups once the average tumour volume reached >100 mm^3. Mice were assigned to indicated groups in ‘Results'. […] For irradiated mice, the tumour-bearing hindlimbs were focally irradiated while the remainder of the mouse was shielded from IR with custom designed lead blocking >95% of the dose as verified by dosimeters placed on the mouse. Free MMAE was injected on an equimolar basis to C-MMAE in final volume of 3% DMSO. Drug doses and IR fractionation are as indicated in ‘Results'. To prevent unnecessary morbidity, mice were killed if tumour length exceeded 15 mm per protocol. Nonlinear regression least squares fit was used to calculate tumour volume doubling times. Tumour doubling times were extrapolated for T-DM1+IR groups where tumour doubling was been achieved. To minimize the number of mice used, tumours were grown in the bilateral flanks. For CAL-27 tumour xenografts in experiment Fig. 4f, the number of mice and tumours per group were: control (5 mice, 10 tumours), IR (5 mice, 10 tumours), MMAE (4 mice, 8 tumours) MMAE+IR (5 mice, 10 tumours), cetuximab (5 mice, 10 tumours), cetuximab+IR (5 mice, 10 tumours), C-MMAE (4 mice, 8 tumours), C-MMAE+IR (5 mice, 10 tumours). For CAL-27 tumour xenografts in experiment Fig. 4g, the number of mice and tumours per group were: control (4 mice, 8 tumours), IR (5 mice, 10 tumours), cetuximab+MMAE (5 mice, 10 tumours) cetuximab+MMAE+IR (5 mice, 10 tumours), C-MMAE (5 mice, 10 tumours), C-MMAE+IR (5 mice, 10 tumours). […] For OE19 tumour xenografts in experiment Fig. 5d,e and Table 1, the number of mice and tumours per group were: control (5 mice, 10 tumours), IR (5 mice, 10 tumours), trastuzumab (5 mice, 10 tumours), trastuzumab+IR (5 mice, 10 tumours), T-DM1 (5 mice, 10 tumours) and T-DM1+IR (5 mice, 10 tumours). […]

HCT116 tumour xenografts = assay: HCT116 tumour xenograft growth with or without IR; assay type: in vivo, mice; conditions: HCT116 (HER2−)
Procedure: (§1) CAL-27, OE19, NCI N87 and HCT116 tumour xenografts were established and tumour growth was measured with digital calipers. Tumour volume was measured blindly to treatment group and calculated using the formula as ½ × length × width^2. Mice were randomized into groups once the average tumour volume reached >100 mm^3. Mice were assigned to indicated groups in ‘Results'. […] For irradiated mice, the tumour-bearing hindlimbs were focally irradiated while the remainder of the mouse was shielded from IR with custom designed lead blocking >95% of the dose as verified by dosimeters placed on the mouse. Free MMAE was injected on an equimolar basis to C-MMAE in final volume of 3% DMSO. Drug doses and IR fractionation are as indicated in ‘Results'. To prevent unnecessary morbidity, mice were killed if tumour length exceeded 15 mm per protocol. Nonlinear regression least squares fit was used to calculate tumour volume doubling times. Tumour doubling times were extrapolated for T-DM1+IR groups where tumour doubling was been achieved. To minimize the number of mice used, tumours were grown in the bilateral flanks. […]

[1] = test system: NCI N87 tumour xenografts; assay: NCI N87 tumour xenograft growth with or without IR; assay type: in vivo, mice; conditions: NCI N87 (HER2+)
Procedure: as §1

[2] = test system: HER2+ and HER2− cell lines; assay: Neutral comet assay after IR, HER2+ and HER2− cell lines; assay type: cell-based, human; conditions: 20 nM overnight, 2 Gy
Procedure: (§2) Cells were treated with indicated times doses of MMAE, mertansine, cetuximab, cetuximab-MMAE, trastuzumab, trastuzumab-MMAE or T-DM1 overnight, and then irradiated with 6 Gy. Cells were collected 15 min post IR, suspended in agarose gel and lysed per assay directions (Trevigen). Samples underwent electrophoresis under neutral conditions and were then stained with Sybr Green. Comet tails were counted in multiple fields (>60 cells per sample) and analysed using CometScore (TriTek Corp). Comet tail length was normalized to vehicle-treated, non-irradiated cells.

CAL-27 cells [3] = assay: Neutral comet assay after IR, CAL-27 cells; assay type: cell-based, human; conditions: 5 nM overnight, 6 Gy, compared with irradiated vehicle
Procedure: as §2

LN229 cells = assay: Neutral comet assay after IR, LN229 cells; assay type: cell-based, human; conditions: 20 nM overnight, 6 Gy, low EGFR binding LN229
Procedure: as §2

CAL-27 cells [4] = assay: Clonogenic cell survival (SF2), CAL-27 cells; assay type: cell-based, human; conditions: drug overnight then 2 Gy, compared with vehicle
Procedure: Cells were treated with MMAE, mertansine, cetuximab or cetuximab-MMAE for 24 h and then irradiated with 2 Gy. Following IR, cells were counted, re-plated at varying cell numbers in drug-free media. 10–14 days after initial seeding formed colonies were methanol fixed, stained with crystal violet and counted. Surviving fraction at 2 Gy (SF2) was calculated as the fraction of cells surviving 2 Gy compared with non-irradiated cells.

CAL-27 tumour xenografts = assay: CAL-27 tumour xenograft growth with or without IR; assay type: in vivo, mice; conditions: Fig 4f, 0.5 nmol cetuximab or C-MMAE, 2 nmol free MMAE on day 0
Procedure: CAL-27, OE19, NCI N87 and HCT116 tumour xenografts were established and tumour growth was measured with digital calipers. Tumour volume was measured blindly to treatment group and calculated using the formula as ½ × length × width^2. Mice were randomized into groups once the average tumour volume reached >100 mm^3. Mice were assigned to indicated groups in ‘Results'. […] For irradiated mice, the tumour-bearing hindlimbs were focally irradiated while the remainder of the mouse was shielded from IR with custom designed lead blocking >95% of the dose as verified by dosimeters placed on the mouse. Free MMAE was injected on an equimolar basis to C-MMAE in final volume of 3% DMSO. Drug doses and IR fractionation are as indicated in ‘Results'. To prevent unnecessary morbidity, mice were killed if tumour length exceeded 15 mm per protocol. Nonlinear regression least squares fit was used to calculate tumour volume doubling times. Tumour doubling times were extrapolated for T-DM1+IR groups where tumour doubling was been achieved. To minimize the number of mice used, tumours were grown in the bilateral flanks. For CAL-27 tumour xenografts in experiment Fig. 4f, the number of mice and tumours per group were: control (5 mice, 10 tumours), IR (5 mice, 10 tumours), MMAE (4 mice, 8 tumours) MMAE+IR (5 mice, 10 tumours), cetuximab (5 mice, 10 tumours), cetuximab+IR (5 mice, 10 tumours), C-MMAE (4 mice, 8 tumours), C-MMAE+IR (5 mice, 10 tumours). For CAL-27 tumour xenografts in experiment Fig. 4g, the number of mice and tumours per group were: control (4 mice, 8 tumours), IR (5 mice, 10 tumours), cetuximab+MMAE (5 mice, 10 tumours) cetuximab+MMAE+IR (5 mice, 10 tumours), C-MMAE (5 mice, 10 tumours), C-MMAE+IR (5 mice, 10 tumours). […] For OE19 tumour xenografts in experiment Fig. 5d,e and Table 1, the number of mice and tumours per group were: control (5 mice, 10 tumours), IR (5 mice, 10 tumours), trastuzumab (5 mice, 10 tumours), trastuzumab+IR (5 mice, 10 tumours), T-DM1 (5 mice, 10 tumours) and T-DM1+IR (5 mice, 10 tumours). For NCI N87 tumour xenografts in experiment Fig. 5d,e and Table 1, the number of mice and tumours per group were: control (2 mice, 4 tumours), IR (3 mice, 6 tumours), trastuzumab (3 mice, 6 tumours), trastuzumab+IR (4 mice, 8 tumours), T-DM1 3 mice, 6 tumours) and T-DM1+ IR (4 mice, 8 tumours). For HCT116 tumour xenografts in experiment Fig. 5d,e and Table 1, the number of mice and tumours per group were: control (3 mice, 6 tumours), IR (4 mice, 8 tumours), trastuzumab (3 mice, 6 tumours), trastuzumab+IR (3 mice, 6 tumours), T-DM1 (3 mice, 6 tumours) and T-DM1+ IR (4 mice, 8 tumours).

OE19 tumours [5] = assay: Immunohistochemistry of OE19 tumour xenografts (pS10 Histone H3, cleaved caspase 3); assay type: in vivo, mice; conditions: 0.5 nmol Cy5-labelled ADC i.v.
Procedure: Tissue sections were cut from blocks of formalin-fixed paraffin embedded xenografts. Four micron thick tissue sections were stained with antibodies to phospho-histone H3 (pH3, Abcam, catalogue number ab32107) and cleaved caspase-3 (ClC3, Cell Signaling Technology, catalogue number 9661) and used at dilutions of 1:300 and 1:900, respectively. Slides were stained on a Ventana Discovery Ultra (Ventana Medical Systems, Tucson, AZ, USA). Antigen retrieval was performed using CC1 for 24–40 min at 95 °C. The primary antibodies were incubated on the sections for 1 h at 37 °C. Primary antibodies were visualized used DAB as a chromagen using the UltraMap system (Ventana Medical systems) followed by hematoxylin as a counterstain. Slides were rinsed, dehydrated through alcohol and xylene and coverslipped.
Immunostained slides were scanned using an Axio Scan.Z1 (Zeiss; Oberkochen, Germany). […] Whole-slide images were imported into Definiens Software for quantitative analysis (Definiens; Munich, Germany). […] For analysis of pH3 (a nuclear stain), the total number of nuclei and the total number of nuclei showing DAB staining (pH3 positive cells) were recorded within each ROI. The percent of positive nuclei was then calculated for each sample. For analysis of ClC3 (a cytoplasmic stain), mean DAB chromagen intensity was measured and calculated within the ROI for each sample.

CAL-27 cells [6] = assay: ADC cell surface binding (Cy5, flow cytometry), CAL-27 cells; parameters: species or system human; conditions: Cy5-labelled ADC, on ice, increasing concentrations
Procedure: (§3) Cells were collected and resuspended in cold PBS with 5% BSA. Cy5-labelled cetuximab-MMAE or trastuzumab-MMAE was added to the cells at indicated concentrations for 15 min on ice. Cells were washed, resuspended in PBS with 5% BSA and 0.5 μg ml^−1 propidium iodide, and analysed by flow cytometry.

CALU3 cells [7] = assay: Alamar blue cell viability, CALU3 cells; assay type: cell-based, human; conditions: 96 hours
[8] = test system: HER2 expressing cell lines, OE19, CALU3, and BT474; assay: ADC cell surface binding (Cy5, flow cytometry), HER2 expressing cell lines; parameters: species or system human; conditions: Cy5-labelled ADC, on ice, increasing concentrations
Procedure: as §3

OE19 tumours [9] = assay: In vivo Cy5 optical imaging of OE19 tumour xenografts; parameters: species or system mice; conditions: 0.5 nmol i.v., imaged 48 h later, HER2+ tumours
Procedure: (§4) All animal work was done in compliance with the University of California San Diego Institutional Animal Use and Care Committee. Six-to-eight-week-old female athymic nu/nu mice purchased from the University of California San Diego Animal Care Program breeding colony were injected subcutaneously into the bilateral upper thighs with 5 × 10^6 CAL-27, SQ9-G, SCC-35, SCC-61, A549, HCT-116, OE19 or LN229 tumour cells in a 1:1 Matrigel (BD) and PBS solution. After tumours grew to >100 mm^3 they were injected with 0.5 nmol of Cy-labelled cetuximab-MMAE, trastuzumab-MMAE (∼4 and ∼3.9 mg kg^−1, respectively) as described above. For imaging, mice were anaesthetized (1:1 mixture of 100 mg ml^−1 of ketamine and 5 mg ml^−1 of midazolam). Animals were imaged using a Maestro Small Animal Imager (CRI) with excitation filter of 620/22 and 645 nm long-pass emission filter with dichroic filter tuned to 670 nm. Imaging was done both with skin on and after skin removal to decrease autofluorescence and scattering. […] At various time points after injection, the tail was pricked and a small volume (5–10 μl) of blood was collected in a heparinized hematocrit tube. Fluorescent images were taken using the Maestro, with the filters mentioned above, and the integrated fluorescent intensity was measured using Image J.

OE19 cells = assay: Neutral comet assay after IR, OE19 cells; assay type: cell-based, human; conditions: 2 nM overnight, 6 Gy, compared with vehicle, 20 nM antibody or 2 nM C-MMAE
Procedure: as §2

CALU3 cells [10] = assay: Neutral comet assay after IR, CALU3 cells; assay type: cell-based, human; conditions: 2 nM overnight, 6 Gy, compared with vehicle or 20 nM antibody
Procedure: as §2

[11] = Blood clearance by Cy5 fluorescence; assay type: in vivo, mice; conditions: 5 nmol, Cy5-labelled
Procedure: as §4

[12] = 0.25 nmol i.v. day 0, +IR 2.5 Gy on days 1, 2 and 3

Substance: trastuzumab
- Tumour doubling time in days (mean, 95% CI) (OE19 tumour xenografts; [12]): 14 (10–24) days
- Tumour doubling time in days (mean, 95% CI) (OE19 tumour xenografts; 0.25 nmol i.v. day 0, no IR): 6 (4–8) days
- Tumour doubling time in days (mean, 95% CI) (HCT116 tumour xenografts; [12]): 7 (5–12) days
- Tumour doubling time in days (mean, 95% CI) (HCT116 tumour xenografts; 0.25 nmol i.v. day 0, no IR): 4 (2–8) days
- Tumour doubling time in days (mean, 95% CI) [1, 12]: 19 (16–22) days
- Tumour doubling time in days (mean, 95% CI) ([1]; 0.25 nmol i.v. day 0, no IR): 14 (10–21) days
- radiosensitization (IR induced DNA double-strand breaks, comet tail length) [2]: did not result in any significant radiosensitization

Substance: cetuximab
- effect on IR induced comet tail length (CAL-27 cells [3]): not
- effect on IR induced comet tail length (LN229 cells): not appreciably increased
- surviving fraction following 2 Gy (SF2) (CAL-27 cells [4]): no radiosensitizing effect
- Mean Diff. Control vs. treatment + IR (Tukey's multiple comparisons, tumour volume) (CAL-27 tumour xenografts; day 35, + IR 3 Gy on days 1 and 2): 559.5
- Mean Diff. Control vs. treatment (Tukey's multiple comparisons, tumour volume) (CAL-27 tumour xenografts; day 35, no IR): 500.9

Substance: T-MMAE: monomethyl auristatin E conjugated to trastuzumab via maleimidocaproyl-valine-citrulline-PABA linker, Cy5-labelled, ∼3.2 MMAE per antibody
- slowing of tumour growth compared with control or trastuzumab (OE19 tumour xenografts; single dose of 1 nmol, by day 14): equally efficacious in slowing tumour growth
- pS10 of Histone H3 in tumours (OE19 tumours [5]): increased pS10 of Histone H3 in tumours
- cell surface binding (CAL-27 cells [6]): not
- cytotoxicity of C-MMAE compared with T-MMAE (CALU3 cells [7]): equally cytotoxic
- cell surface binding [8]: dose-dependent binding
- tumour Cy5 signal accumulation (OE19 tumours [9]): greater Cy5 signal accumulation within tumours compared with C-MMAE
- effect on IR induced comet tail length (OE19 cells): further increased comet tail length
- effect on IR induced comet tail length (CALU3 cells [10]): increased comet tail length to a similar degree
- pharmacokinetics, loss of Cy5 fluorescence in the blood [11]: comparable to that of similar Cy5-labelled antibody alone
